Source: patent publication US9796704B2, “Substituted quinazolines as receptor-type kinase inhibitors” (Symphony Evolution, Inc., priority 2002, dated 2017)

Sequences of proteins named here, by UniProt entry; tags and fusion partners are left off. Residues count along the entry.
UniProt P35968, 807-1356: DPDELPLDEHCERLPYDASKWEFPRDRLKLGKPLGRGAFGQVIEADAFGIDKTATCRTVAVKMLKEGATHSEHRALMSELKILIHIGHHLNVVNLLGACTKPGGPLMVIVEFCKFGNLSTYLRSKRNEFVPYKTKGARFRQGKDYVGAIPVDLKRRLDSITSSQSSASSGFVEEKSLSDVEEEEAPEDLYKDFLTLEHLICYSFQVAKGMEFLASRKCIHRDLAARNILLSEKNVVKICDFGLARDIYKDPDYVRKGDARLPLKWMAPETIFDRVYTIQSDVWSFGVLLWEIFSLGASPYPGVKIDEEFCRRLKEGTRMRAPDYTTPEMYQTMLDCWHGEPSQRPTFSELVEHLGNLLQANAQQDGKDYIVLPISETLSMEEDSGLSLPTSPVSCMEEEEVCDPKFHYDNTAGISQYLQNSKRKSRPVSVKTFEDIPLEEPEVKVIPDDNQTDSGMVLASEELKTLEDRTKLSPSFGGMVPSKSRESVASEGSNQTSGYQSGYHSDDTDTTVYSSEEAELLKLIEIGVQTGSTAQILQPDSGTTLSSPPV
UniProt P29317, 598-890: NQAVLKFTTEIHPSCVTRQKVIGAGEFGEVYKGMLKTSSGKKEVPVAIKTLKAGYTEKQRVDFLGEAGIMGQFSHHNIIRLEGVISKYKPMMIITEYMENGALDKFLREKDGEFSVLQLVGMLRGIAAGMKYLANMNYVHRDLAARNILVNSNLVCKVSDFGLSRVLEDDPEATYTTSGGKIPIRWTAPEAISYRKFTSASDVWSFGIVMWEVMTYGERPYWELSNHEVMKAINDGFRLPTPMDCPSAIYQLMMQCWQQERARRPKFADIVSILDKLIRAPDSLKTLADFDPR

Assays:
KDR = KDR (Homo sapiens (Human), UniProt P35968); assay: KDR kinase inhibition, luciferase-coupled chemiluminescent assay (LCCA); settings: read-out: KDR IC50
EphA2 = EphA2 (Homo sapiens (Human), UniProt P29317); assay: EphA2 kinase inhibition, luciferase-coupled chemiluminescent assay (LCCA); settings: read-out: EphA2 IC50

“N-(3,4-dichlorophenyl)-7-({[2-(1-ethylpiperidin-4-yl)-1,3-thiazol-4-yl]methyl}oxy)-6-(methyloxy)quinazolin-4-amine hydrochloride [Example 37]” was tested, and the IC50 (KDR) was under 50 nM.

“N-(3,4-dichlorophenyl)-6-(methyloxy)-7-{[(5-piperidin-2-yl-1,2,4-oxadiazol-3-yl)methyl]oxy}quinazolin-4-amine hydrochloride [Example 31]” was tested, and the IC50 (EphA2) was under 50 nM.
